The text below walks through data of ChEMBL document CHEMBL4392848, “Proline-based hydroxamates targeting the zinc-dependent deacetylase LpxC: Synthesis, antibacterial properties, and docking studies” (Bioorg Med Chem, 2019).

Amino acid sequences for entries named in this document (tags omitted). A change or cut given only in a name is not applied to a line headed by its entry.
UniProt P22894: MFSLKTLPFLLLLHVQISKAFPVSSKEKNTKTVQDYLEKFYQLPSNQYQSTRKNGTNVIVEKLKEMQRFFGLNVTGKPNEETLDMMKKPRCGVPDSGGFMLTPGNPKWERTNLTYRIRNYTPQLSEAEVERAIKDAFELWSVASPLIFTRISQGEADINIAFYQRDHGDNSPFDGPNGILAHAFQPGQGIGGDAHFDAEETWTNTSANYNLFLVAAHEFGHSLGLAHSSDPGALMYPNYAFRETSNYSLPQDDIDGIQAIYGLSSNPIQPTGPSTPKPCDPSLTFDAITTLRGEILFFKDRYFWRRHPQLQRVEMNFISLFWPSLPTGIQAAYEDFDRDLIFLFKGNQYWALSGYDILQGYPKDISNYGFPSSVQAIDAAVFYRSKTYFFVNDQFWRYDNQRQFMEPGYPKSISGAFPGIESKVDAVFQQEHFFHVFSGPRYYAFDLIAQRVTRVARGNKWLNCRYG

This test has as its target Neutrophil collagenase (Homo sapiens, UniProt P22894). Kind of test: Inhibition of human MMP8 using (7-methoxycoumarin-4-yl)acetyl-Pro-Leu-Gly-Leu-(3-(2,4-dinitrophenyl)-L-2,3-diamino-propionyl)Ala-Arg-NH2 as substrate preincubated for 30 mins followed by substrate addition and measured by fluorescence assay.

By IC50 is commonly meant the point on the concentration scale where inhibition reaches its midpoint. Low readings indicate inhibition by little substance, high ones a need for much substance. `COc1ccc(S(=O)(=O)N(Cc2cccnc2)[C@@H](C(=O)NO)C(C)C)cc1` registered a concentration for half-maximal inhibition (IC50) of 11 nM.
